This is a selection; strong and weak results do not stand in their true shares. Some tests of the compounds listed are not included; inactive here does not mean inactive elsewhere. The source made the active and inactive calls.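 The calls were made as follows: active = mean of duplicate membrane potential ratios lying over 3 SD above or below the buffer control mean, so actives fall on both sides; inactive = the rest.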

The test is described as follows: membrane potential effects in parental HEK293, counter-screen for CHT inhibitor project, cell-based, membrane potential dye (AID 493222).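 Also: parental cells lack the transporter so any hit is non-specific.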 The note with it: choline response, at 10 µM. A general note: A counterscreen serves to expose hits that act by an unwanted route or on another target.
On to `CCCCC(CC)C(=O)N1CCN(C/C=C/c2ccccc2)CC1` (stereo unspecified), for which the outcome was inactive.

Source of the values: PubChem BioAssay AID493222 (Johns Hopkins Ion Channel Center, 2011).
